This is an account of results in patent US9890185B2, “Urea derivatives useful as kinase inhibitors” (Respivert Limited, priority 2013, dated 2018).

In this test the test system is endotoxin (LPS)-induced uveitis. The test can be described thus: Endotoxin-induced uveitis in rats (in vivo assay vi). Also on record: species or system Lewis rats. The conditions noted are these: LPS-stimulated rats, topical to eye, 1 mg/mL. Here is the method:
Male, Lewis rats (6-8 weeks old, Charles River UK Limited) are housed in cages of 3 at 19-21° C. with a 12 h light/dark cycle (07:00/19:00) and fed a standard diet of rodent chow and water ad libitum. […] Untreated rats are injected with PBS. […] Before administration, the solution or suspension to be administered is agitated for 5 minutes to ensure a uniform suspension. 6 hours after LPS dosing, animals are euthanized by overdose with pentobarbitone (i.v.). Following euthanasia, the right eye of each animal is enucleated and dissected into front (anterior) and back (posterior) sections around the lens. Each section is weighed and homogenised in 500 μL of sterile phosphate buffered saline followed by 20 minutes centrifugation at 12000 rpm at 4° C. The resulting supernatant is divided into 3 aliquots and stored at −80° C. until subsequent cytokine analysis by R&D DuoSet ELISA.

`C[C@@H]1C[C@H]2[C@@H]3CCC4=CC(=O)C=C[C@]4(C)[C@@]3(F)[C@@H](O)C[C@]2(C)[C@@]1(O)C(=O)CO` [Dexamethasone, dexamethasone, reference compound]: the “IL-1β Anterior tissue” value was found to be 313.9 ± 109.6 pg/mL and the “IL-1β Posterior tissue” value is given as 215.2 ± 88.5 pg/mL.
